Measurements published in publication PMC9936496, “Azobenzene-Based Amino Acids for the Photocontrol of Coiled-Coil Peptides” (Bioconjugate Chemistry, 2023).
Starred links: 1 amine or outer side, 2 acyl side, 3 side chain; linkers in the order of their positions; H or OH if unused. Non-standard residues stand in square brackets, D forms with d. Residues, ends and D or L forms follow the SMILES beside them. X1 = O=C([C@@H](N[*:1])c1ccc(N=Nc2ccccc2)cc1)[*:2]

Assays:
[1] = from 340 nm PSS, PBS, [peptide] = 50 μM; for absorption maximum observed in the dark state regained after 435 nm light: amino acid incorporated at position 9 of peptide K3, absorbance at 335 nm
[2] = Thermal relaxation of K3-APgly from the 340 nm PSS, UV absorbance at 325 nm; assay type: physicochemical; settings: PBS, 20 °C, [peptide] = 50 μM
Method: For the potential application of K3-APgly in an active system, for example, for membrane fusion, the stability of the photoswitch to repeated light exposures (photocycling) is required. […] Finally, the peptide was irradiated with the 340 nm PSS and allowed to thermally relax, showing 65% recovery in 69 h.
Figure 4 Photocycling of K3-APgly between the dark-adapted, 340 and 435 nm PSS (left), thermal relaxation of the peptide after […] (middle) and distribution of the absorbance in the different states during cycling (right).

Row | Compound | absorption maximum observed in the dark state regained after 435 nm light [1] | dark absorbance at 325 nm regained after 435 nm light ([1]; 20 °C) | t1/2 of thermal relaxation ([2]; from 340 nm PSS after photocycling) | recovery by thermal relaxation ([2]; in 69 h from 340 nm PSS)
1 | N[C@@H](Cc1ccc(N=Nc2ccccc2)cc1)C(=O)O [APhe1, Phenylazo-phenylalanine] | 92% | – | – | –
2 | N[C@@H](Cc1ccc(N=Nc2ccc(C(=O)O)cc2)cc1)C(=O)O [APhe2] | 98% | – | – | –
3 | CC[C@H](C)[C@H](NC(=O)[C@H](CCCCN)NC(C)=O)C(=O)N[C@@H](C)C(=O)N[C@@H](C)C(=O)N[C@@H](CC(C)C)C(=O)N[C@@H](CCCCN)C(=O)N[C@@H](CCC(=O)O)C(=O)N[C@@H](CCCCN)C(=O)N[C@H](C(=O)N[C@@H](C)C(=O)N[C@@H](C)C(=O)N[C@@H](CC(C)C)C(=O)N[C@@H](CCCCN)C(=O)N[C@@H](CCC(=O)O)C(=O)N[C@@H](CCCCN)C(=O)N[C@H](C(=O)N[C@@H](C)C(=O)N[C@@H](C)C(=O)N[C@@H](CC(C)C)C(=O)N[C@@H](CCCCN)C(=O)N[C@@H](CCC(=O)O)C(N)=O)[C@@H](C)CC)c1ccc(N=Nc2ccccc2)cc1 [K3-APgly] (Ac-KIAALKEK[X1]AALKEKIAALKE-NH2) | – | 92% | 46 h | 65%
